Test results as given in patent US20050148505A1, “Genes and agents to regulate follicular development, ovulation cycle and steriodogenesis” (priority 2003, published 2005).

System: CTBP mRNA
Experiment: In situ hybridization of ovaries of immature rats primed with PMSG and hCG
Format: in vivo, rat
Details: PMSG-primed rats additionally primed with hCG for 6 h; high level persisted in small follicles
Experimental: FIG. 4. Follicular stage dependent expression of CTBP mRNA. Immature 22-23 day old rats were primed with a single injection of PMSG for 0 (A), 3 (B), 6 (C), 24 (D) and 48 (E) h, followed by priming with an hCG injection for 1 (F) and 6 h (G, H). The ovaries were excised, sectioned and hybridized with the CTBP antisense probe (A-G) or inhibin a antisense probe (H). In addition to the dark field autoradiographs in the left panel, the corresponding bright field images of hematoxylin staining are aligned in the right panels. Arrows and arrowheads indicate preantral and early antral follicles, respectively. PO, preovulatory follicle; AtF, atretic follicle. 40× magnification.
All animals were handled according to the guidelines for care and use of animals set by the National Institutes of Health and the University of Kentucky Institutional Animal Care and Use Committee. Eighteen to twenty-one day old Sprague-Dawley female pups with nursing mothers were purchased from Harlan Breeding Company (Indianapolis, Ind.) and housed in a photoperiod of 14 h light/10 h darkness with light on at 0500 h. For in situ hybridization analysis, rats were injected s.c. with 15 IU PMSG in 0.1 ml PBS at 22 or 23 days of age. Some of the rats primed with PMSG for 48 h were additionally injected i.p. with 10 IU hCG. […]

hCG: hCG purchased from the National Hormone and Peptide Program; used to prime rats after PMSG
CTBP signal in large antral follicles, particularly preovulatory follicles: completely abolished
